Data as given in patent US20130053374A1, “OPHTHALMIC COMPOSITION” (priority 2010, published 2013).

What was measured:
[1] = pH-solubility of Dorzolamide with hyperbranched polymer and PEG (Experimental Example 1); assay type: physicochemical; settings: phosphate buffer pH 7
Protocol: Similar suspensions were also prepared in aqueous solution containing different concentrations of different HP and PEG with a molecular weight of 8000. A combination of Polysorbate 80 and PEG 8000 was also attempted. The pH was measured accurately with micro-pH electrode (Thermo Scientific). The desired pH was adjusted using either 1 M NaOH or 1 M HCl. […] After allowing the suspensions to equilibrate at room temperature for an additional 30 minutes, the suspension solutions were then sonicated for 10 minutes and finally filtered through 0.45 μm syringe filters.

[2] = pH 7.4, 0.5% (w/v) Timolol, 5% (w/v) HP (Boltorn W3000)
[3] = Aqueous solubility of Dorzolamide in the presence of Timolol with HP, PEG, Polysorbate 80 (Experimental Example 3); assay type: physicochemical; settings: pH 5.65, in the presence of Timolol, in all cases (control and additives)
Protocol: The final pH was adjusted to 5.65 with 1 M NaOH after addition of HP (sample 1). The combination of different molecular weight PEG and Polysorbate 80 at pH 5.65 as per Table 3 were also attempted. […] After allowing the suspensions to equilibrate at room temperature for an additional 30 minutes, the suspension solutions were then sonicated for 10 minutes and finally filtered through 0.45 μm syringe filters.

intact rabbit corneas = settings: male, New Zealand, 180 min, pH 7.4

With `CCN[C@H]1C[C@H](C)S(=O)(=O)c2sc(S(N)(=O)=O)cc21` [Dorzolamide] the “solubility of Dorzolamide” value ([1]; 17% of PEG 8000 and 1% Lupasol PS) was 2 % (w/v), the “solubility of Dorzolamide” value ([1]; about 20% PEG 8000 and 0.5% of Lupasol PS) was 2 % (w/v) and the solubility [2] was “about 2 % (w/v)”. For the same compound, the “solubility of Dorzolamide” value [3] was “above 2%” and the “cumulative amount permeated relative to control formulation at similar pH with no additives” value (intact rabbit corneas) was roughly 2 times.
